Assay results taken from PubChem BioAssay (Tox21).
“And” between values parts separate entries of the source, which are not always exact repeats. Identical values can stand only once. The list shows a part of the results, in another mix than the full data. Records with an inconclusive call do not appear. A structure can be active in one record and inactive in another. The source made the active and inactive calls. Unless noted, the call rests on the fitted dose curve; in most records, active means well fitted curve in the direction sought with a large enough effect in the repeat runs; inconclusive means weak or mixed curves; inactive means no such curve, though single readings can be large; an effect the other way counts as inactive or inconclusive.

Amino acid sequences for entries named in this document (tags omitted).
UniProt P16473, whole entry: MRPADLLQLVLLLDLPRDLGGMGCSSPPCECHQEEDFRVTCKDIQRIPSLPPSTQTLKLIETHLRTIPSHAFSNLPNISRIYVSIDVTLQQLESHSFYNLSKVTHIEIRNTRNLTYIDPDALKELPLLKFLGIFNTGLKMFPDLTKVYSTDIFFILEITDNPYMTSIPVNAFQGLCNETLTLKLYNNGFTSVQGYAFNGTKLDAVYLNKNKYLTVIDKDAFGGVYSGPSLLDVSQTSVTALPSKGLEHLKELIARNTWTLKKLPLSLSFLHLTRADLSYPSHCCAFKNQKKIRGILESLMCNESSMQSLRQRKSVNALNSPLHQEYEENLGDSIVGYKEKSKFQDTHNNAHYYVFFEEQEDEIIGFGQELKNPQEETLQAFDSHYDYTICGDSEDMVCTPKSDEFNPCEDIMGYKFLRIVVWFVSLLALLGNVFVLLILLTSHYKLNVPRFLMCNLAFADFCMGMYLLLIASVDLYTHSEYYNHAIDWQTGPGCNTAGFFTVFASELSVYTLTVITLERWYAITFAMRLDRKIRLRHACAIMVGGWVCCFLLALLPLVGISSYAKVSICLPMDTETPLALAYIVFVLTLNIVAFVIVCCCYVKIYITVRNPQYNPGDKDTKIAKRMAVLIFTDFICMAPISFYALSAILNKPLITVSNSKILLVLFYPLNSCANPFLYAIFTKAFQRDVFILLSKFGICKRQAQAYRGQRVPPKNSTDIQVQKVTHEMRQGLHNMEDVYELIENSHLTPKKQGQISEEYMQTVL

Experiments:
[1] = target: Thyrotropin receptor (Homo sapiens) (UniProt P16473); assay: qHTS assay to identify small molecule agonists of the thyroid stimulating hormone receptor (TSHR) signaling pathway (AID 1224843; calls by dose curve; further: nearly all actives have a fitted effect of over 45% in size; further: potency means the concentration at half of the fitted maximal effect)
[2] = qHTS assay to identify small molecule agonists of the hypoxia (HIF-1) signaling pathway - cell viability counter screen (AID 1224844; calls by dose curve; further: nearly all actives have a fitted effect of over 50% in size); settings: HRE-bla ME-180 viability, CellTiter-Glo luminescence, 17 h; at 76.8 µM (top of the series) unless noted
Method in brief: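 Same wells as the HIF-1 reporter screen; ME-180 cells carrying HRE-bla, 17 hr treatment at 37C; CellTiter-Glo luminescence read after 30 min at room temperature.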

[3] = qHTS assay to identify small molecule agonists of H2AX (AID 1224845; active means well fitted activation curve with a large enough effect in the signal ratio in the repeat runs, not every such curve was filed as active; the % refers to the signal ratio); settings: CHO-K1 phospho-H2AX Ser139 HTRF, 3 h; at 154 µM (top of the series) unless noted
Method in brief: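 Phospho-H2AX Ser139 measured by HTRF (ex 320 nm; em 665 and 620 nm) after 24 hr antibody incubation. Compounds, 15 concentrations, 0.76% DMSO, were applied to CHO-K1 cells for 3hr at 37C before lysis.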

[4] = qHTS assay to identify small molecule agonists of the hypoxia (HIF-1) signaling pathway (AID 1224846; active means well fitted activation curve with a large enough effect in the signal ratio in the repeat runs, not every such curve was filed as active; the % refers to the signal ratio); settings: HRE-bla ME-180 cells, beta-lactamase ratio, 17 h; at 76.8 µM (top of the series) unless noted
Method in brief: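 In ME-180 cells bearing an HRE-bla construct, 17 h treatment with DMSO-dissolved compounds at 37C was followed by CCF4-AM loading to quantify reporter induction.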

[5] = qHTS assay to identify small molecule agonists of H2AX - cell viability counter screen (AID 1224847; calls by dose curve;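 further: wild-type CHO-K1 cells; top concentration of the series differs between compounds; nearly all actives have a fitted effect of over 30% in size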); settings: CHO-K1 viability, CellTiter-Glo luminescence, 3 h; at 154 µM (top of the series) unless noted
Method in brief: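 Counter-screen for viability: CellTiter-Glo ATP luminescence read after 3 h compound treatment (15-point titration, 0.76% DMSO final) of CHO-K1 cells at 37C, with 30 min room-temperature reagent incubation.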

[6] = qHTS assay to identify small molecule antagonists of the estrogen related receptor (ERR) signaling pathway from Tox21 library (AID 1224848); further: nearly all actives have a fitted effect of over 50% in size
Method in brief: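 Luciferase luminescence (ONE-Glo, 30 min room temperature) was the read-out. Cells of the NTP-supplied ERR line, 2,000 per well, were given 6 h at 37 C before compound addition in DMSO and 18 h exposure at 37 C.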

[7] = qHTS assay to identify small molecule agonists of the estrogen related receptor (ERR) signaling pathway from Tox21 library (AID 1224849; calls by dose curve; further: nearly all actives have a fitted effect of over 15% in size); settings: ERR reporter cell line, ONE-Glo luciferase, 18 h; at 92.4 µM (top of the series) unless noted
Method in brief: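 Reporter cells (ERR, NTP source) treated with Tox21 10K compounds 18 h, 37 C. Readout: ONE-Glo luminescence, 30 min RT.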

[8] = qHTS RealTime-Glo MT Cell Viability Assay in HepG2 cells - 24 hour (AID 1224867); settings: RealTime-Glo luminescence; at 76.8 µM (top of the series) unless noted; further: nearly all actives have a fitted effect of over 50% in size
Method in brief: (§1)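 Luminescence read-out: viable HepG2 cells reduce a prosubstrate to a NanoLuc substrate, giving a signal proportional to live cell number. Reads taken at 0, 8, 16, 24, 32 and 40 h of compound exposure at 37 C.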

[9] = qHTS RealTime-Glo MT Cell Viability Assay in HEK293 cells - 32 hour (AID 1224868); further: nearly all actives have a fitted effect of over 50% in size; further: potency means the concentration at half of the fitted maximal effect; on activity change, negative = cytotoxic: top concentration of the series differs between compounds
Method in brief: (§2)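 Nonlytic real-time viability readout: viable cells convert prosubstrate to NanoLuc substrate, giving luminescence proportional to live cell number. HEK293, 600 cells/well, compound added after 5 h, continuous culture at 37 C.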

[10] = A CellTox Green Cytotoxicity Assay to monitor cytotoxicity in HEK293 cells - 0 hour (AID 1224869); settings: CellTox Green fluorescence; at 76.8 µM (top of the series) unless noted; further: nearly all actives have a fitted effect of over 50% in size
Method in brief: (§3)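 Homogeneous no-lysis format: HEK293 cell suspension mixed with CellTox Green reagent, seeded, incubated 5 h at 37 C/5% CO2, then dosed by pintool with compound in DMSO.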

[11] = qHTS RealTime-Glo MT Cell Viability Assay in HepG2 cells - 40 hour (AID 1224870); settings: RealTime-Glo luminescence; at 76.8 µM (top of the series) unless noted; further: nearly all actives have a fitted effect of over 50% in size
Method in brief: (§4)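 Real-time viability: cells seeded at 600 per well together with NanoLuc and cell-permeant prosubstrate, compounds added after 5 h incubation. Luminescence tracked at 0, 8, 16, 24, 32 and 40 h of exposure.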

[12] = A CellTox Green Cytotoxicity Assay to monitor cytotoxicity in HEK293 cells - 40 hour (AID 1224871); settings: CellTox Green fluorescence; at 76.8 µM (top of the series) unless noted; further: nearly all actives have a fitted effect of over 45% in size
Method in brief: as §3

[13] = qHTS RealTime-Glo MT Cell Viability Assay in HEK293 cells - 16 hour (AID 1224872); settings: RealTime-Glo luminescence; at 76.8 µM (top of the series) unless noted
Method in brief: as §2

[14] = qHTS RealTime-Glo MT Cell Viability Assay in HepG2 cells - 8 hour (AID 1224873); settings: RealTime-Glo luminescence; at 76.8 µM (top of the series) unless noted; further: nearly all actives have a fitted effect of over 55% in size
Method in brief: as §4

[15] = qHTS RealTime-Glo MT Cell Viability Assay in HEK293 cells - 40 hour (AID 1224874); settings: RealTime-Glo luminescence; max response: stronger effect = lower value; further: nearly all actives have a fitted effect of over 50% in size; further: potency means the concentration at half of the fitted maximal effect
Method in brief: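 Measured as luminescence from the same continuously cultured HEK293 wells at successive time points (0, 8, 16, 24, 32, 40 h) after compound addition. Reagent present from seeding; dosing at 5 h; incubation 37 C.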

[16] = A CellTox Green Cytotoxicity Assay to monitor cytotoxicity in HEK293 cells - 24 hour (AID 1224875); settings: CellTox Green fluorescence, stronger effect = higher value; at 76.8 µM (top of the series) unless noted; further: nearly all actives have a fitted effect of over 45% in size
Method in brief: as §3

[17] = qHTS RealTime-Glo MT Cell Viability Assay in HepG2 cells - 32 hour (AID 1224877); settings: RealTime-Glo luminescence; at 76.8 µM (top of the series) unless noted; further: nearly all actives have a fitted effect of over 55% in size
Method in brief: as §1

[18] = A CellTox Green Cytotoxicity Assay to monitor cytotoxicity in HepG2 cells - 16 hour (AID 1224876); settings: CellTox Green fluorescence; at 76.8 µM (top of the series); further: nearly all actives have a fitted effect of over 45% in size
Method in brief: (§5)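 Fluorescent DNA-binding dye, 600 HepG2 cells/well, 5 h preincubation then compound in DMSO; same plates read at 0–40 h, 37 C.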

[19] = A CellTox Green Cytotoxicity Assay to monitor cytotoxicity in HepG2 cells - 24 hour (AID 1224878); settings: CellTox Green fluorescence; at 76.8 µM (top of the series); further: nearly all actives have a fitted effect of over 45% in size
Method in brief: as §5

[20] = A CellTox Green Cytotoxicity Assay to monitor cytotoxicity in HepG2 cells - 40 hour (AID 1224879); settings: CellTox Green fluorescence; at 76.8 µM (top of the series) unless noted; further: nearly all actives have a fitted effect of over 40% in size
Method in brief: as §5
On the % scale 0 is the no-effect control and ±100 the full control effect.

CCOC(=O)N1CCC(=O)CC1
inactive: Potency [1] | activity change, negative = cytotoxicity [2] 1.68% [at 35.3 µM] | activation (H2AX phosphorylation) [3] -1.06% [at 70.9 µM] | activation [4] -0.907% [at 35.5 µM] | activity change, negative = cytotoxicity [5] 3.67% [at 70.9 µM] | Potency [6] | activity change, positive = activation [7] 0.104% [at 42.5 µM] | activity change, negative = cytotoxicity [8] 1.06% [at 35.3 µM] | Potency [9] | cytotoxicity [10] 2.09% [at 35.3 µM] | activity change, negative = cytotoxic [11] 0.695% [at 35.3 µM] | cytotoxicity increase [12] 8.65% [at 35.3 µM] | activity change, negative = cytotoxicity [13] 2.96% [at 35.3 µM] | viability change, negative = cytotoxic [14] 2.63% [at 35.3 µM] | max response [15] 1.74% | activity change [16] 4.93% [at 35.3 µM] | activity change, negative = cytotoxic [17] 2.02% [at 35.3 µM]

CCOP(=O)(Cl)Cl
9.52 µM (active) and inactive: Potency [1]
active: Potency [15] 21.9 µM
inactive: activity change, negative = cytotoxicity [2] 6.54% and 0.47% | activation (H2AX phosphorylation) [3] 3.02% and -0.493% | activation [4] -0.0415% and -0.0696% | activity change, negative = cytotoxicity [5] -2.05% and -0.653% | Potency [6] | activity change, positive = activation [7] -2.01% and -4.33% | activity change, negative = cytotoxicity [8] 0.457% and -0.378% | cytotoxicity [10] -8.35% and -0.857% | activity change, negative = cytotoxic [11] 1.78% and 1.87% | cytotoxicity increase [12] -7.46% and -18.1% | activity change, negative = cytotoxicity [13] -1.28% | viability change, negative = cytotoxic [14] -6.45% and -1.15% | activity change [16] -11.9% and -13% | cytotoxicity increase [18] -6.68% and -10.5% | activity change, negative = cytotoxic [17] 1.16% and 0.008% | cytotoxicity [19] -7.22% and -11.5% | cytotoxicity increase [20] -9.71% and -11.5%
inactive and 21.9 µM (active): Potency [9]

ClCCOP(OCCCl)OCCCl
inactive: Potency [1] | activity change, negative = cytotoxicity [2] 0.998% and -0.521% | activation (H2AX phosphorylation) [3] 0.346% and 0.482% | activation [4] 0.368% and 0.0801% | activity change, negative = cytotoxicity [5] -1.14% and -3.63% | Potency [6] | activity change, positive = activation [7] 0.387% and 2.66% | activity change, negative = cytotoxicity [8] 1.86% and 1.08% | Potency [9] | cytotoxicity [10] -4.17% and 4.81% | activity change, negative = cytotoxic [11] -1.57% and -6.43% | cytotoxicity increase [12] -5.49% and 5% | activity change, negative = cytotoxicity [13] 6.09% and 0.649% | viability change, negative = cytotoxic [14] 2.74% and 4.61% | max response [15] 8.19% and 4.3% | activity change [16] -9.68% and 2.97% | cytotoxicity increase [18] -11.1% and -17.6% | activity change, negative = cytotoxic [17] 0.131% and -1.58% | cytotoxicity [19] -10.1% and -19.6% | cytotoxicity increase [20] -12.1% and -22.3%

ClCCNCCCl
inactive: Potency [1] | activity change, negative = cytotoxicity [2] -18.7% | activation (H2AX phosphorylation) [3] 2.77% | activation [4] 0.155% | activity change, negative = cytotoxicity [5] -0.141% | Potency [6] | activity change, positive = activation [7] -8.64% | activity change, negative = cytotoxicity [8] -4.52% | Potency [9] | cytotoxicity [10] 0.302% | activity change, negative = cytotoxic [11] 21.9% | cytotoxicity increase [12] 0.747% | activity change, negative = cytotoxicity [13] 5.32% | viability change, negative = cytotoxic [14] -20.1% | max response [15] -21.2% | activity change [16] 0.828% | cytotoxicity increase [18] -13.6% | activity change, negative = cytotoxic [17] 5.87% | cytotoxicity [19] -16.2% | cytotoxicity increase [20] -18.7%
